ChEMBL document CHEMBL3217731, “Pharmacokinetics of Agelastatin A in the central nervous system” (Medchemcomm, 2012)

Test: Ratio of AUC in C57BL/6J mouse CSF to AUC in C57BL/6J mouse serum
Type: ADME

For CN1C(=O)N[C@H]2[C@@H]3NC(=O)c4ccc(Br)n4[C@@H]3C[C@]21O [AGELASTATIN A], the “Ratio AUC” value was 10.09%.
